Data as given in PMC7982521, “Studies on the Changes of Pharmacokinetics Behaviors of Phytochemicals and the Influence on Endogenous Metabolites After the Combination of Radix Bupleuri and Radix Paeoniae Alba Based on Multi-Component Pharmacokinetics and Metabolomics” (Frontiers in Pharmacology, 2021).

Experiment: Multi-component pharmacokinetics in rat plasma after oral administration of RB, RPA or RB-RPA extracts (UPLC-HRMS, non-compartmental analysis)
Type: in vivo, Sprague-Dawley rats
Details: mean ± SD, n = 7
Method: (Beijing, China, No. SCXK2018-0011). […] All rats were free to access the water and food until 12 h before the experiment. The animal study was reviewed and approved by the Experimental Animal Ethical Committee of Modern Research Center for Traditional Chinese Medicine, Shanxi University (animal ethic approval number: SXULL2018018), and all experimental procedures were carried out in accordance with the NIH Guide for the Care and Use of Laboratory Animals. After one week of adaptation, twenty-one rats were divided into three groups randomly, with seven rats in each group: 1) RPA group, were oral administration of Radix Paeoniae Alba extract (45 g-herb/kg); 2) RB group, were oral administration of Radix Bupleuri extract (45 g-herb/kg); 3) RB-RPA group, were oral administration of powder mixture of Radix Bupleuri and Radix Paeoniae Alba extracts (containing 45 g-herb/kg Radix Bupleuri and 45 g-herb/kg Radix Paeoniae Alba). […] Each group received intragastric administration with a volume of 10 ml/kg (rat body weight). […] All rats were free to access the water during the experiment. The blood samples at each time point were collected from seven rats. The blood samples were centrifuged at 4,000 rpm for 10 min and frozen at -80°C until analysis. Using a Thermo-Fisher Dionex UltiMate 3000 UHPLC system coupled with a Q Exactive Orbitrap-MS (Thermo-Fisher, United States) and Xcalibur workstation (Thermo-Fisher Scientific Inc.,Waltham, MA, United States) to acquire UPLC-HRMS raw data. Chromatographic separation of herb extracts and plasma samples was performed on an Acquity UPLC HSS T3 column (2.1 mm × 100 mm, 1.8 μm) maintained at 37°C. The flow rate was 0.2 ml/min and the injection volume was 5 μL. […] Mass spectrometry detection conditions were set as follows: the MS data were acquired under positive and negative ionization modes via heated electrospray ionization (HESI) source. […] The Q Exactive Orbitrap-MS has a fast positive and negative ion switching function, which could switch between positive-negative ion modes during the analysis of the same sample. So, we applied the method of switching ion modes in the detection process to quantify all analytes better. Glycyrrhizin was selected as the internal standard because it could be detected in both positive and negative ion modes. UPLC/MS/MS calibration and quantitation data were processed with Xcalibur workstation (Thermo-Fisher Scientific Inc., Waltham, MA, United States). For the eight components with standard reference, calculating their concentrations from the standard curves. For the other 30 components without standard reference, their concentrations were analyzed following the regression equations of homologous compounds ([Qiao et al., 2012]): paeoniflorin for P1 and M1 to M3; methylgallate for M4 to M10; saikosaponin […] and […]; saikosaponin […]; saikosaponin […]; saikosaponin B2 for P11 and M25 to […].

[1] = oral administration of mixed extracts RB-RPA
[2] = oral administration of single extract RPA

For Oxypaeoniflorin, the AUC0-t [1] was 93.27 ± 25.68 ng·h/mL, the “AUC0-∞” value [1] was 99.49 ± 30.27 ng·h/mL and the Cmax [1] was 26.64 ± 7.12 ng/mL. It also gave a t1/2 [1] of 2.87 ± 0.71 h, a tmax [1] of 0.58 ± 0.13 h and an AUC0-t [2] of 74.40 ± 21.91 ng·h/mL. The “AUC0-∞” value [2] was 79.59 ± 25.23 ng·h/mL, the Cmax [2] was 21.62 ± 2.97 ng/mL and the t1/2 [2] was 2.81 ± 0.72 h. It also gave a tmax [2] of 0.71 ± 0.19 h.
